Measured values published in ChEMBL document CHEMBL5113496, “A systematic exploration of boceprevir-based main protease inhibitors as SARS-CoV-2 antivirals” (Eur J Med Chem, 2022).

These compounds were tested against Replicase polyprotein 1ab (Severe acute respiratory syndrome coronavirus 2, UniProt P0DTD1) (assay: Inhibition of eGFP fused SARS-CoV2 main protease transfected in HEK293T/17 cells incubated for 72 hrs by fluorescence based flow cytometry analysis).
Assay type: cell-based
With `CC(C)(C)NC(=O)N[C@H](C(=O)N1C[C@H]2[C@@H]([C@H]1C(=O)N[C@@H](C[C@@H]1CCNC1=O)C(=O)C(=O)NC1CC1)C2(C)C)C(C)(C)C` the EC50 was > 10 µM.
`CC(C)(C)NC(=O)N[C@H](C(=O)N1CC2(CC2)C[C@H]1C(=O)N[C@H](C=O)C[C@@H]1CCNC1=O)C(C)(C)C` was tested, and the EC50 was > 10 µM.
`CCNC(=O)C(=O)[C@H](C[C@@H]1CCNC1=O)NC(=O)[C@@H]1[C@@H]2[C@H](CN1C(=O)[C@@H](NC(=O)NC(C)(C)C)C(C)(C)C)C2(C)C` was tested, and the EC50 was > 10 µM.
With `CC(C)(C)C[C@H](NC(=O)[C@@H](NC(=O)NC(C)(C)C)C(C)(C)C)C(=O)N[C@H](C=O)C[C@@H]1CCNC1=O` the EC50 was > 5 µM.
In the case of `CC(C)(C)NC(=O)NC(C(=O)N1C[C@H]2[C@@H]([C@H]1C(=O)N[C@@H](C[C@@H]1CCNC1=O)C(=O)C(=O)NCc1ccccc1)C2(C)C)C(C)(C)C` (single isomer, unassigned), the EC50 is reported as > 10 µM.
